“Also recorded” adds a separate entry of the source.
Assay: Solubility in the incubation medium of the binding assays
Format: physicochemical
Details: incubation buffer of the binding assays
Excerpt: Solubility was so low that some of them had to be excluded from some of the binding assays. The reason for this observation cannot be explained based on the present study, but it is speculated that increased intramolecular π–π stacking in the presence of heteroaromatic rings might have contributed to this phenomenon.

With “5-(4′-(5-Methoxypyrimidin-2-yl)-[2,2′-bithiazol]-4-yl)-[1,3]dioxolo[4,5-b]pyridine [f16]” the “solubility in the incubation medium” value was “low solubility; also recorded: decreased solubility; also recorded: could not be dissolved”.

Source: publication PMC10671360, “In Silico and In Vitro Study towards the Rational Design of 4,4′-Disarylbisthiazoles as a Selective α-Synucleinopathy Biomarker” (International Journal of Molecular Sciences, 2023)
